Source: the supplement of paper PMC13380429

Assays:
Calu-3 [1] = experiment: cell viability relative to DMSO; higher = less toxic; conditions: 72 h
Vero E6 [2] = experiment: as above; conditions: 72 h
HepG2 [3] = experiment: as above; conditions: 72 h
Caco-2 [4] = experiment: as above; conditions: 72 h
U2OS [5] = experiment: as above; conditions: 72 h
Calu-3 [6] = experiment: drug sensitivity score (DSS) for viability; higher = more toxic; extreme values may be limits of the assay; conditions: 72 h
Vero E6 [7] = experiment: as above; conditions: 72 h
HepG2 [8] = experiment: as above; conditions: 72 h
Caco-2 [9] = experiment: as above; conditions: 72 h
U2OS [10] = experiment: as above; conditions: 72 h
Calu-3 [11] = experiment: relative viability EC50 (midpoint between 100% and the lowest measured viability); higher = less toxic; conditions: 72 h
Vero E6 [12] = experiment: as above; conditions: 72 h
HepG2 [13] = experiment: as above; conditions: 72 h
Caco-2 [14] = experiment: as above; conditions: 72 h
U2OS [15] = experiment: as above; conditions: 72 h
A549-ACE2 = experiment: drug-induced phospholipidosis relative to tamoxifen; higher = more phospholipidosis

`N=C(N)NCCC[C@H](N)C(=O)NCC(=O)N[C@@H](CC(=O)O)C(=O)N[C@@H](CO)C(=O)O` [DU-728] gave a cell viability (Calu-3 [1]; 1 nM) of 103%, a cell viability (Calu-3 [1]; 10 nM) of 105% and a cell viability (Calu-3 [1]; 100 nM) of 98.8%. The cell viability (Calu-3 [1]; 1000 nM) was 102%, the cell viability (Calu-3 [1]; 10000 nM) was 107% and the cell viability (Vero E6 [2]; 1 nM) was 105%. It also gave a cell viability (Vero E6 [2]; 10 nM) of 115%, a cell viability (Vero E6 [2]; 100 nM) of 103% and a cell viability (Vero E6 [2]; 1000 nM) of 99.6%. The cell viability (Vero E6 [2]; 10000 nM) was 88.6%, the cell viability (HepG2 [3]; 1 nM) was 93.4% and the cell viability (HepG2 [3]; 10 nM) was 97.2%. For the same compound, the cell viability (HepG2 [3]; 100 nM) was 100%, the cell viability (HepG2 [3]; 1000 nM) was 98.9% and the cell viability (HepG2 [3]; 10000 nM) was 98.8%. For the same compound, the cell viability (Caco-2 [4]; 1 nM) was 113%, the cell viability (Caco-2 [4]; 10 nM) was 104% and the cell viability (Caco-2 [4]; 100 nM) was 106%. The cell viability (Caco-2 [4]; 1000 nM) was 96%, the cell viability (Caco-2 [4]; 10000 nM) was 111% and the cell viability (U2OS [5]; 1 nM) was 99.3%. The cell viability (U2OS [5]; 10 nM) was 93.8%, the cell viability (U2OS [5]; 100 nM) was 93.5% and the cell viability (U2OS [5]; 1000 nM) was 94.5%. It also gave a cell viability (U2OS [5]; 10000 nM) of 96.3%, a drug sensitivity score (Calu-3 [6]) of 0 and a drug sensitivity score (Vero E6 [7]) of 0. It also gave a drug sensitivity score (HepG2 [8]) of 0, a drug sensitivity score (Caco-2 [9]) of 0 and a drug sensitivity score (U2OS [10]) of 0. The “relative viability EC50” value (Calu-3 [11]) was greater than 10 µM, the “relative viability EC50” value (Vero E6 [12]) was greater than 10 µM and the “relative viability EC50” value (HepG2 [13]) was greater than 10 µM. The “relative viability EC50” value (Caco-2 [14]) was greater than 10 µM, the “relative viability EC50” value (U2OS [15]) was greater than 10 µM and the drug-induced phospholipidosis (A549-ACE2; 0.3 µM, 24 h) was -2.92%. For the same compound, the drug-induced phospholipidosis (A549-ACE2; 0.3 µM, 48 h) was 1.6%, the drug-induced phospholipidosis (A549-ACE2; 0.3 µM, 72 h) was 4.67% and the drug-induced phospholipidosis (A549-ACE2; 0.833333 µM, 24 h) was -4.44%. For the same compound, the drug-induced phospholipidosis (A549-ACE2; 0.833333 µM, 48 h) was -0.97%, the drug-induced phospholipidosis (A549-ACE2; 0.833333 µM, 72 h) was -3.31% and the drug-induced phospholipidosis (A549-ACE2; 3.33333 µM, 24 h) was -4.24%. It also gave a drug-induced phospholipidosis (A549-ACE2; 3.33333 µM, 48 h) of -0.23%, a drug-induced phospholipidosis (A549-ACE2; 3.33333 µM, 72 h) of 1.34% and a drug-induced phospholipidosis (A549-ACE2; 6.66667 µM, 24 h) of -3.18%. It also gave a drug-induced phospholipidosis (A549-ACE2; 6.66667 µM, 48 h) of -0.87%, a drug-induced phospholipidosis (A549-ACE2; 6.66667 µM, 72 h) of -4.1% and a drug-induced phospholipidosis (A549-ACE2; 10 µM, 24 h) of -0.55%. It also gave a drug-induced phospholipidosis (A549-ACE2; 10 µM, 48 h) of 0.85%, a drug-induced phospholipidosis (A549-ACE2; 10 µM, 72 h) of -3.08% and a drug-induced phospholipidosis (A549-ACE2; 30 µM, 24 h) of 6.43%. For the same compound, the drug-induced phospholipidosis (A549-ACE2; 30 µM, 48 h) was 7.09% and the drug-induced phospholipidosis (A549-ACE2; 30 µM, 72 h) was 2.99%.
